Sequences of proteins named here, by UniProt entry; tags and fusion partners are left off.
UniProt P21397, whole entry: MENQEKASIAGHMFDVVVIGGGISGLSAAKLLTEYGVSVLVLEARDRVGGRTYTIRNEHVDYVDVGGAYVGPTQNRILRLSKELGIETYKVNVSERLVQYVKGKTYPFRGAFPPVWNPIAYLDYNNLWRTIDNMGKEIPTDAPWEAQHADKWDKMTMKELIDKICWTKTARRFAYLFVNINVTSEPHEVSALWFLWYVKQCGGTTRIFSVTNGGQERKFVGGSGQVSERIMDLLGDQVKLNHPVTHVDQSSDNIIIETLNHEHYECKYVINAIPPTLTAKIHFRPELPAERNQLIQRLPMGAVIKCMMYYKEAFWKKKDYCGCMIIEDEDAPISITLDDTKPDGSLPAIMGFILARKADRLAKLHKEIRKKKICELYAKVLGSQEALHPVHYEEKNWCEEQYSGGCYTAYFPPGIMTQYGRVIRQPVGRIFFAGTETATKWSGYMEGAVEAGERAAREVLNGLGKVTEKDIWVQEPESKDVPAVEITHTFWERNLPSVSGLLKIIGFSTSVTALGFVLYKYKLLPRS

According to article PMC8510601, “Discovery of benzamide-hydroxypyridinone hybrids as potent multi-targeting agents for the treatment of Alzheimer's disease” (Journal of Enzyme Inhibition and Medicinal Chemistry, 2021):

How the values were obtained:
[1] = literature value, footnote b; cited from earlier work
[2] = molecular target: MAO-A (Homo sapiens, UniProt P21397); assay: Human MAO-A inhibitory assay; assay type: biochemical; conditions: read-out: IC50 ± SEM MAO-A

| Structure (SMILES) | Pe [1] | IC50 [2] [µM] |
| --- | --- | --- |
| Cn1c(=O)c2[nH]cnc2n(C)c1=O [Theophylline] | 1.07 ± 0.18^b 10^–6 cm/s | – |
| C#CCN(C)Cc1ccccc1 [Pargyline, reference compound] | – | 4.189 ± 0.005 |
